Measurements taken from US20090305950A1.

Sequences of proteins named here, by UniProt entry; tags and fusion partners are left off. Residues count along the entry.
UniProt Q9NZQ7, 19-239 limits assumed: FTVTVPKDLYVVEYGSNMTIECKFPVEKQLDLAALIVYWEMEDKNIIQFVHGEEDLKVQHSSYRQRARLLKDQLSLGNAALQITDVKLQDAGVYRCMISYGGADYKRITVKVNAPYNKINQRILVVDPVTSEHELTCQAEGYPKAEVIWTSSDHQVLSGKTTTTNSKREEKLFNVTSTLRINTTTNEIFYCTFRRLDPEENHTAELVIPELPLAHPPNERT

Target: hPD-L1/Fc (human) (UniProt Q9NZQ7)
Assay: SPR (BIAcore), hPD-L1/Fc immobilised; reference is the hPD-1 monomer

- increase in the binding activity, times the monomer: 26 times
Substance: hPD-1 tetramer (biotinylated hPD-1 extracellular domain bound to R-PE-streptavidin) (from UniProt Q15116 25-145; P22629 37-163)
